From patent EP1331219A1

Legend:
3A10A6A2 = test: Competition ELISA, cross reactivity with methamphetamine analogs, antibody 3A10A6A2; format: binding, murine; conditions: Met1 = 100
6H5D1C4 = test: Competition ELISA, cross reactivity with methamphetamine analogs, antibody 6H5D1C4; format: binding, murine; conditions: Met1 = 100

SMILES | % inhibition as compared with the antigen Met1 (3A10A6A2) [%] | % inhibition as compared with the antigen Met1 (6H5D1C4) [%]
NCCc1ccc(O)c(O)c1 [3-hydroxytyramine] | 2 | 1
CNC[C@H](O)c1ccc(O)c(O)c1 [Epinephrine] | 3 | 1
